From article PMC4755858 (Biochemistry, 2016) come the findings set out here.

Chains of the proteins cited; added tags and fusions are not shown. Residues count along the entry.
UniProt P37484, 84-659: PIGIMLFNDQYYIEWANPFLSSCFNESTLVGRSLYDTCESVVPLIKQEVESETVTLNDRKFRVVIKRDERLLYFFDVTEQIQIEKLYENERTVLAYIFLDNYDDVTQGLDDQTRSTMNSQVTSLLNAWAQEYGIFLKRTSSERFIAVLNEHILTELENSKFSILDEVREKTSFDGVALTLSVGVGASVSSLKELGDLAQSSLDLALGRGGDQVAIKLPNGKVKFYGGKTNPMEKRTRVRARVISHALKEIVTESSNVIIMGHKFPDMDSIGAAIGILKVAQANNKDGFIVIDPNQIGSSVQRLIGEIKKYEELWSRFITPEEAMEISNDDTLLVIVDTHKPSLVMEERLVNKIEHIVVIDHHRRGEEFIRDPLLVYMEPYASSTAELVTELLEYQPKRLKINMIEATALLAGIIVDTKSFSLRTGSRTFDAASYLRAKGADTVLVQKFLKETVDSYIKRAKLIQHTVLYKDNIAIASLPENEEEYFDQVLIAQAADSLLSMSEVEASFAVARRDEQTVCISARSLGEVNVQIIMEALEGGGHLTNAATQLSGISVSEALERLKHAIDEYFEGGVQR

Experiment [1] has as its system wild-type ydaO riboswitch. Put plainly: gel-shift. The experiment is classed as binding, Bacillus subtilis. The conditions noted are these: loss in affinity for wild-type ydaO relative to c-di-AMP.
The target of experiment [2] is phosphodiesterase protein GdpP (GdpP84–659) (Bacillus subtilis, UniProt P37484). The experiment in a line: HPLC phosphodiesterase assay, degradation rates of c-di-AMP and analogs. The experiment is classed as biochemical. The conditions noted are these: hydrolysis rate relative to c-di-AMP (fold slower).

SMILES strings stand for the structures.

As for `Nc1nc2c(ncn2[C@@H]2O[C@@H]3COP(=O)(O)O[C@H]4[C@@H](O)[C@H](n5cnc6c(=O)[nH]c(N)nc65)O[C@@H]4COP(=O)(O)O[C@H]3[C@H]2O)c(=O)[nH]1` [c-di-GMP, (3’-5’)-cyclic diguanosine monophosphate, reference compound], in experiment [1], the “Fold Loss” value is on record as > 2.0 × 10^7. The “Fold Change” value in experiment [2] was 5.1.
